Results published in PMC11272584 (Nature Metabolism, 2024).

How the values were obtained:
[1] = target: T1, GIPR G449A (Homo sapiens, UniProt P48546, G449A); test: cAMP accumulation; format: cell-based; parameters: host or cells: HEK293
T1 sequence (P48546 22-466 G449A): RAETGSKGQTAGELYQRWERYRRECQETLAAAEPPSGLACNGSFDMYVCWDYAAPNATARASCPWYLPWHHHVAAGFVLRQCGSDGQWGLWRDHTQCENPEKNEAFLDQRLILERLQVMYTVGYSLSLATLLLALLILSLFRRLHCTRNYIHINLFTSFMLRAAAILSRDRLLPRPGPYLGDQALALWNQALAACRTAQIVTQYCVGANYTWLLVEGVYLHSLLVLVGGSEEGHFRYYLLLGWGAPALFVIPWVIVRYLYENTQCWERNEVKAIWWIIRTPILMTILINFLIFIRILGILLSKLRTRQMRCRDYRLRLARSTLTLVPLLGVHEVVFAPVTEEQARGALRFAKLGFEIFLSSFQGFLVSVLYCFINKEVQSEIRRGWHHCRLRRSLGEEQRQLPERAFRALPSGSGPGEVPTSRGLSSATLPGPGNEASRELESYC

[2] = target: T2, GIPR V99I (Homo sapiens, UniProt P48546, V99I); test: cAMP accumulation; format: cell-based; parameters: host or cells: HEK293
T2 sequence (P48546 22-466 V99I): T1 sequence (P48546 22-466 G449A) with V78I, A428G

[3] = target: T3, GIPR R183Q (Homo sapiens, UniProt P48546, R183Q); test: cAMP accumulation; format: cell-based; parameters: host or cells: HEK293
T3 sequence (P48546 22-466 R183Q): T1 sequence (P48546 22-466 G449A) with R162Q, A428G

[4] = target: T4, GIPR R12Q (Homo sapiens, UniProt P48546); details: GIPR R12Q (ECD), mean, n = 5, duplicate
T4 sequence (P48546 22-466): T1 sequence (P48546 22-466 G449A) with A428G

[5] = target: T5, GIPR I378M (Homo sapiens, UniProt P48546, I378M); details: HEK293A, 1 µM GIP minus vehicle, n = 4, P = 0.0023
T5 sequence (P48546 22-466 I378M): T1 sequence (P48546 22-466 G449A) with I357M, A428G

Substance: glucose-dependent insulinotropic polypeptide [GIP]
- cAMP (Emax) ([1]; HEK293, GIP(1–42) 1 pM–100 nM, 30 min 37 °C, mean of n = 6): 65 % of WT GIPR activity
- logEC50 (cAMP) ([1]; HEK293, Hill slope 1.0, mean of n = 6): -11.1
- cAMP (Emax) ([2]; HEK293, GIP(1–42) 1 pM–100 nM, 30 min 37 °C, mean of n = 4): 15 % of WT GIPR activity
- logEC50 (cAMP) ([2]; HEK293, Hill slope 1.0, mean of n = 4): -9.2
- cAMP (Emax) ([3]; HEK293, GIP(1–42) 1 pM–100 nM, 30 min 37 °C, mean of n = 3): 118 % of WT GIPR activity
- logEC50 (cAMP) ([3]; HEK293, Hill slope 1.0, mean of n = 3): -8.0
- logEC50 (Arrestin) ([4]; Hill slope 1.0): -8.7
- Arrestin (Emax) ([4]; normalized to WT GIPR): 92
- Mean of ΔBRET [5]: 0.1166

Positions count from the first letter of the chain named.
